The structures appear in SMILES notation. pIC50: −log10 of the molar value.

In this assay the target is CRAC channel (Homo sapiens (Human), UniProt Q96D31). The assay can be described thus: GFP-NFAT translocation-based high-content screening (TG-stimulated HeLa cells stably expressing GFP-NFAT). The format is cell-based. Conditions: IC50 Value, Table 1, hits from virtual screening; unit inferred. An excerpt: It is known that thapsigargin (TG) can induce the CRAC channel to open resulting in the calcium influx. The elevation of calcium in cytoplasm can activate the Ca^2+-calcineurin-NFAT pathway followed by NFAT translocation from the cytoplasm to the nucleus to regulate gene transcription. Therefore, the inventors built a GFP-NFAT translocation-based high-content screening method to evaluate the activity of compounds on CRAC channel. Briefly, a HeLa cell line stably expressing GFP-NFAT was established and used, and the images after chemical stimulation in the presence of TG were acquired using an IN Cell Analyzer 6000 confocal laser imaging system, and then the GFP fluorescent intensity ratio between cytoplasm and nucleus was analyzed to reflect the inhibitory activity of compound on CRAC channel.
Briefly, GFP-NFAT stable cells were cultured in Dulbecco's modified eagle's medium (DMEM) supplemented with 10% FBS in 5% carbon dioxide at 37° C. […] Using Pipeline Plot software (NAFT translocation protocol), the intensity of green fluorescence was analyzed in nucleus and cytosol, calculate the ratio of nucleus:cytosol, normalize TG stimulate NFAT translocation as 1 and no TG adding as 0. Finally, the data was analyzed using GraphPad Prism 5 software.

Turning to `Cc1ccc(Cl)cc1-c1ccc(/C=C2\SC(=S)N(CC(=O)CO)C2=O)o1` [Compound 16], the pIC50 was less than 3.70.
